{"source": "patent US20030118652A1", "about": "“Methods and compositions for use of (S)-bisoprolol” (priority 2001, published 2003)", "origin": "cited, not measured here", "details": "following administration of racemic bisoprolol; (S)- versus (R)-bisoprolol"}
{"compound": "CC(C)NC[C@H](O)COc1ccc(COCCOC(C)C)cc1", "note": "[(S)-bisoprolol]", "values": [{"measurement": "area under the plasma concentration-time curve", "result": "slightly higher"}]}
